Results from ChEMBL document CHEMBL5260822, “Structure-based design and synthesis of 2,4-diaminopyrimidines as EGFR L858R/T790M selective inhibitors for NSCLC” (Eur J Med Chem, 2017).

Species on record: Homo sapiens
Assay: Selectivity ratio, ratio of IC50 for inhibition of wild type EGFR (unknown origin) to IC50 for inhibition of EGFR L858R/T790M mutant (unknown origin)
Outline: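 EGFR WT and L858R/T790M kinase domains expressed in a baculovirus system and purified on Ni-NTA. Kinase activity measured by ELISA-based EGFR tyrosine kinase assay; at least three independent determinations, mean ± SD.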

With `C=CC(=O)Nc1cc(Nc2ncc(Br)c(Nc3ccc4cc[nH]c4c3)n2)ccc1N1CCN(C)CC1` the Ratio IC50 was 14.
Work on `C=CC(=O)Nc1cc(Nc2ncc(Br)c(Nc3ccc4c(c3)CCC4)n2)c(OC)cc1N1CCN(C)CC1` yielded a Ratio IC50 of 63.
With `C=CC(=O)Nc1cc(Nc2ncc(Br)c(Nc3ccc4ccn(C)c4c3)n2)c(OC)cc1N1CCN(C)CC1` the Ratio IC50 was 68.
For `CCC(=O)Nc1cc(Nc2ncc(Br)c(Nc3ccc4cc[nH]c4c3)n2)c(OC)cc1N1CCN(C)CC1`, the Ratio IC50 was 34.
For `C=CC(=O)Nc1cc(Nc2nccc(Nc3ccc4c(ccn4C)c3)n2)c(OC)cc1N1CCN(C)CC1`, the Ratio IC50 was 3.
In the case of `C=CC(=O)Nc1cc(Nc2ncc(Br)c(Nc3ccc4c(c3)CCC4)n2)ccc1N1CCN(C)CC1`, the Ratio IC50 was 17.
Work on `C=CC(=O)Nc1cc(Nc2ncc(Br)c(Nc3ccc4cc[nH]c4c3)n2)ccc1N(C)CCN(C)C` yielded a Ratio IC50 of 43.
For `C=CC(=O)Nc1cc(Nc2ncc(Br)c(Nc3ccc4c(c3)CCC4)n2)ccc1N(C)CCN(C)C`, the Ratio IC50 was 43.
